Laboratory results published in patent US7687623B2, “Pyrrolobenzodiazepines and heterocyclic carboxamide derivatives as follicle stimulating hormone receptor (FSH-R) antagonists” (Wyeth LLC, priority 2005, dated 2010).

Amino acid sequences for entries named in this document (tags omitted). Residues count along the entry.
UniProt P16473, 21-764: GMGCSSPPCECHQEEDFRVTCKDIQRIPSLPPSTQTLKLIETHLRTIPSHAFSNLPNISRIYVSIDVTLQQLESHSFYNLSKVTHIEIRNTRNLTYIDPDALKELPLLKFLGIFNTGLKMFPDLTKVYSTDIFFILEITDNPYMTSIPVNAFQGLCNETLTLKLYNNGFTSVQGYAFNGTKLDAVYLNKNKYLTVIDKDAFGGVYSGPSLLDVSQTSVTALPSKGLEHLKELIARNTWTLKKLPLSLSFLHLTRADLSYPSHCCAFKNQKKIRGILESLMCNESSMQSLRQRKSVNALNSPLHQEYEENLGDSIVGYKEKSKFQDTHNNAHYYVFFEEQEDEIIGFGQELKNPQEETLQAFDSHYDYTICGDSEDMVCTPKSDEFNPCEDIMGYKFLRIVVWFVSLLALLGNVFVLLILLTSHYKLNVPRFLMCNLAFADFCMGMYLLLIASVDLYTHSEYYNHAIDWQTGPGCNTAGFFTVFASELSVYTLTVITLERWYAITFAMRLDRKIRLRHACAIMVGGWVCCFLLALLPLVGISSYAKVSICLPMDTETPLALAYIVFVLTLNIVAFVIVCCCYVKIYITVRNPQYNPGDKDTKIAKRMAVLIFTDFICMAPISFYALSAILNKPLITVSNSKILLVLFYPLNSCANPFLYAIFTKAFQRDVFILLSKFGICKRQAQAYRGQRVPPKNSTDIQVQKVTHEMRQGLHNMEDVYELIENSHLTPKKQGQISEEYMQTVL

Tests used:
Format in all cases: cell-based
human FSH receptor = target: T1, human FSH receptor (Homo sapiens, UniProt P23945); test: FSH receptor-dependent CRE-luciferase reporter gene assay (CHO FSH-R 6CRE-Luc, 1D7 cells); conditions: positive control
T1 construct: host or cells: CHO-K1 (CHO FSH-R 6CRE-Luc, 1D7 cells)
T1 sequence (P23945 18-695): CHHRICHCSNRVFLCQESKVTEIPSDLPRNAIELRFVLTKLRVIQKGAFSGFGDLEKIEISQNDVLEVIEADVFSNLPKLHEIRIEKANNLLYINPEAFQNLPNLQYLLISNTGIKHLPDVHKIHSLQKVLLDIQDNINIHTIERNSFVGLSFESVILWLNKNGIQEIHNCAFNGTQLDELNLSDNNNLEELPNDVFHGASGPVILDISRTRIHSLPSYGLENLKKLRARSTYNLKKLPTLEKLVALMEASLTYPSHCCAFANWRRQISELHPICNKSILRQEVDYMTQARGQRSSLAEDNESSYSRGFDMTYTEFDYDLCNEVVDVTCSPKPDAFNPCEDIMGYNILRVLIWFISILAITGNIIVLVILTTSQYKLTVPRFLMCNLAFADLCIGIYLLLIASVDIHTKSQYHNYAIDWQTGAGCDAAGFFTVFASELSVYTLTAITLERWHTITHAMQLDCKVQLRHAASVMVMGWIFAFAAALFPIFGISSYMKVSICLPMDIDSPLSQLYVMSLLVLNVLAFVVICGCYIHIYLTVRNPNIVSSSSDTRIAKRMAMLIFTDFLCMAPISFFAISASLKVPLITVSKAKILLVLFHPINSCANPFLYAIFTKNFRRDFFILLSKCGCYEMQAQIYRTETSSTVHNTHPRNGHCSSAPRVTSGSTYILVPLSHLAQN
Protocol: This procedure was used to identify and determine the relative potencies of human FSH receptor antagonists using a Chinese hamster ovarian cell line that stably produces the human FSH receptor and a luciferase reporter gene regulated by cAMP response elements.
COMPOUND VEHICLE: Stock compounds were solubilized in an appropriate vehicle, preferably phosphate buffered saline (PBS) or dimethyl sulfoxide (DMSO), at 30 mM. The compounds were subsequently diluted in DMSO to working dilutions of 1 and 20 or 30 mM for 2-dose testing format and 1 μM-10 mM for dose-response format. The DMSO dilutions were diluted 500-fold in sterile growth medium [D-MEM/F-12 (GIBCO/BRL; Grand Island N.Y.) containing 15 mM HEPES, 2 mM 1-glutamine, pyridoxine hydrochloride, phenol red and 5% FetalClone II (HyClone Laboratories, Inc; Logan, Utah), 0.2% DMSO, 100 units penicillin G/ml, and 100 μg streptomycin sulfate/ml (GIBCO/BRL)]. The concentration of the vehicle in each of the compound dilutions was the same. POSITIVE CONTROLS: Purified human FSH (>98%) was purchased from Cortex Biochem, Inc. (San Leandro, Calif.) and a known FSH-R thiazolidinone antagonist was obtained from the Wyeth Research compound repository. Preparation of Cells […]
Background luminescence was measured for each well prior to the addition of the LucScreen reagent. […]
Luciferase activity is expressed as relative light units/sec/well. […]

hFSH-R = target: T2, hFSH-R (Homo sapiens, UniProt P23945); test: cAMP accumulation (RIA) in CHO-3D2 cells (hFSH-R), hFSH-induced; conditions: agonist mode, four-parameter logistic equation
T2 construct: expressed in transfected cells; host or cells: CHO-3D2 cells
T2 sequence (P23945 18-695): T1 sequence (P23945 18-695)
Protocol: This assay was used to verify in vitro potency, efficacy, selectivity and receptor dependency of hits found to inhibit an FSH-R-CRE-luciferase driven reporter.
COMPOUND VEHICLE: Stock compounds were solubilized in 100% DMSO (Sigma Chemical Co.) at a concentration of 30 mM. The compounds were subsequently diluted in sterile assay medium consisting of Opti-MEM® I (Life Technologies) with 0.1% (w/v) BSA (Sigma), prior to use in the bio-assay. The final concentration of DMSO in the assay is 0.1%.
The day prior to the experiment, CHO-3D2 cells (hFSH-R)(1) were plated into 96-well tissue culture plates (Falcon) at a density of 30,000 cells/well in DMEM/F12 medium (Life Technologies) supplemented with 5% Fetal Clone II (Hyclone), 2 mM L-glutamine (Life Technologies) and penicillin/streptomycin (100 U/ml, Life Technologies). Plated cells are then incubated at 37° C. in a humidified 5% CO2/95% air, atmosphere.
On the day of the assay, cells were washed three times with 100 μl/well of assay medium consisting of Opti-MEM® I (Life Technologies) with 0.1% (w/v) BSA (Sigma). Medium was removed and 100 μl of assay medium was added to each well. […] Reactions were terminated by the addition of 50 μl of 0.2N hydrochloric acid to each well and cAMP-accumulation was measured by radioimmunoassay (RIA) using a commercially available kit (Amersham).
All test compounds were evaluated in a dose-response paradigm ranging from about 0.01 to about 30 μM. Controls and test compounds were evaluated in quadruplicate in a 96-well format. […] The ability of the compounds to inhibit the cAMP-accumulation induced by hFSH was evaluated by RIA.
In every assay the EC20 concentration was calculated and only those experiments in which the EC20 concentrations were equal to 1.85±0.4 ng/mL were accepted as valid. […]
cAMP accumulation is expressed as fmol/ml. cAMP accumulation in the agonist mode, or the ability of the compound to inhibit hFSH-, hTSH-, or forskolin-induced cAMP-accumulation in the antagonist mode, was compared to the appropriate negative and positive controls. […]

hTSH-R = target: T3, hTSH-R (Homo sapiens, UniProt P16473); test: Selectivity studies: cAMP accumulation in CHO-25 (hTSH-R) cells
T3 construct: expressed in transfected cells; host or cells: CHO-25 cells
Protocol: cAMP accumulation assays using CHO-25 (hTSH-R) cells were performed as described above for the CHO-3D2 cells with the following exceptions: CHO-25 cells were plated at a density of 50,000 cells/well (2). All test compounds were evaluated in a dose-response paradigm ranging from about 0.01 to 30 μM. Controls and test compounds were evaluated in quadruplicate. Cells were treated with vehicle, hTSH at EC20 (5 nM; hTSH>98% pure, Cortex Biochem, Inc.), or the compounds in the presence or absence of the hTSH at its EC20 concentration. The ability of the compounds to inhibit cAMP-accumulation induced by hTSH was evaluated by RIA.
Along with the test compounds, hTSH was also run as a positive control in the agonist mode using concentrations ranging from about 0.01 μM-1000 μM.
cAMP accumulation is expressed as fmol/ml. cAMP accumulation in the agonist mode, or the ability of the compound to inhibit hFSH-, hTSH-, or forskolin-induced cAMP-accumulation in the antagonist mode, was compared to the appropriate negative and positive controls. Data were analyzed by one-way analysis of variance and significant differences between treatments and control determined by Least Significant Difference test.

hFSH: Purified human FSH (>98%) purchased from Cortex Biochem, Inc.; positive control [reference compound]
EC50, luciferase reporter (human FSH receptor): 0.4 ng/mL
EC100, luciferase reporter (human FSH receptor): 1000 ng/mL
apparent EC20, cAMP accumulation (hFSH-R): 1.85 ng/mL
apparent EC50, cAMP accumulation (hFSH-R): 6.03 ng/mL
apparent EC80, cAMP accumulation (hFSH-R): 22.55 ng/mL

hTSH: hTSH >98% pure, Cortex Biochem, Inc.; positive control in selectivity studies
EC20, cAMP accumulation (hTSH-R): 5 nM
